Patent US20090041767A1, “PHARMACEUTICAL COMBINATIONS” (priority 2007, published 2009)

Amino acid sequences for entries named in this document (tags omitted). Residues count along the entry.
UniProt P09055, 21-798: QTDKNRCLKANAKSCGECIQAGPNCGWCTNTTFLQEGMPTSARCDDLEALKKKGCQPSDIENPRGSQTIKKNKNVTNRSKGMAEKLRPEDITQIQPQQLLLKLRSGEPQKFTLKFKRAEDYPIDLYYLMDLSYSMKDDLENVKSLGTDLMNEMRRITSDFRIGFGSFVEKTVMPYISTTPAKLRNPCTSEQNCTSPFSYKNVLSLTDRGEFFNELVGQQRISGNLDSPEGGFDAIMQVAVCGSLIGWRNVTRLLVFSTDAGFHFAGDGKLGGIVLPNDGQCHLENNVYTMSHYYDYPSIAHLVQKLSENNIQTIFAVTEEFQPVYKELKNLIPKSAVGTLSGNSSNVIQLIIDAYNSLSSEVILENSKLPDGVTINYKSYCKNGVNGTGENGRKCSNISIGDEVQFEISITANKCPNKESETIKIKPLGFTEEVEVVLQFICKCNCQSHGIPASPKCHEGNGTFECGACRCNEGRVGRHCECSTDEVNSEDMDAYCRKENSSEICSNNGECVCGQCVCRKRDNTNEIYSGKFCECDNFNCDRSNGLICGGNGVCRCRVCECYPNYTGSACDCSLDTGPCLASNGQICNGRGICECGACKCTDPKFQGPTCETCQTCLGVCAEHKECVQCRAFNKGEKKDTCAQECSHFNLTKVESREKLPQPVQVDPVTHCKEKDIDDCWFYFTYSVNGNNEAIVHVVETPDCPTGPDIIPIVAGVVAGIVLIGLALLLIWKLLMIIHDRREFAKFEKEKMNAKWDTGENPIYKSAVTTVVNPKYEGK
UniProt P11688, 45-1053: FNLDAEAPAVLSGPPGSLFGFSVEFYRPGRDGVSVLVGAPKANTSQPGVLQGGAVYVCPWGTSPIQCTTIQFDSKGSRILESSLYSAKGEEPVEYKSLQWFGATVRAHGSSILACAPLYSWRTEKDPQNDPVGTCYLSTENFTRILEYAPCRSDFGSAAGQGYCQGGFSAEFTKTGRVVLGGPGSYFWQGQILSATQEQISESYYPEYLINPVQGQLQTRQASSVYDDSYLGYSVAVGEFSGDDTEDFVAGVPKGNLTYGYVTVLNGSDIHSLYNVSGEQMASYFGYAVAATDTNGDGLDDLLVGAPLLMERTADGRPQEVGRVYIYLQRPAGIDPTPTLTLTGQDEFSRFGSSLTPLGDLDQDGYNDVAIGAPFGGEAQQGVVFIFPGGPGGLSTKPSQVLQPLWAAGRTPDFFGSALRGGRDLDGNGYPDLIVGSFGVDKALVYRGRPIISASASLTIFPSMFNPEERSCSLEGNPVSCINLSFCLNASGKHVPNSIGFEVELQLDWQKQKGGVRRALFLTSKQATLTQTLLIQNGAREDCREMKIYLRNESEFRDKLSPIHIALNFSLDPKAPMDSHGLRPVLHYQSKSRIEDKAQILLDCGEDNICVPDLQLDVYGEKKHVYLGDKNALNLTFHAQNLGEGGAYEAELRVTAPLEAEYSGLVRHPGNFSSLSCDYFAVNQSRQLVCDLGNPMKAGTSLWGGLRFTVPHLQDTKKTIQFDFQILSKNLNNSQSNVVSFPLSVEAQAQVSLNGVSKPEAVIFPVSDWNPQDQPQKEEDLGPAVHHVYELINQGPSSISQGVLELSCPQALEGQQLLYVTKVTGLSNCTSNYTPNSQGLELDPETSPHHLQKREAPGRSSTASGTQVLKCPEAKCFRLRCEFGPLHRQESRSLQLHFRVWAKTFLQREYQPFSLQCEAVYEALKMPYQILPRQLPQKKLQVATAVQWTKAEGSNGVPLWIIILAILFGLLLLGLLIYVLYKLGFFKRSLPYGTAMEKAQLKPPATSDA
UniProt P08648, 42-1049: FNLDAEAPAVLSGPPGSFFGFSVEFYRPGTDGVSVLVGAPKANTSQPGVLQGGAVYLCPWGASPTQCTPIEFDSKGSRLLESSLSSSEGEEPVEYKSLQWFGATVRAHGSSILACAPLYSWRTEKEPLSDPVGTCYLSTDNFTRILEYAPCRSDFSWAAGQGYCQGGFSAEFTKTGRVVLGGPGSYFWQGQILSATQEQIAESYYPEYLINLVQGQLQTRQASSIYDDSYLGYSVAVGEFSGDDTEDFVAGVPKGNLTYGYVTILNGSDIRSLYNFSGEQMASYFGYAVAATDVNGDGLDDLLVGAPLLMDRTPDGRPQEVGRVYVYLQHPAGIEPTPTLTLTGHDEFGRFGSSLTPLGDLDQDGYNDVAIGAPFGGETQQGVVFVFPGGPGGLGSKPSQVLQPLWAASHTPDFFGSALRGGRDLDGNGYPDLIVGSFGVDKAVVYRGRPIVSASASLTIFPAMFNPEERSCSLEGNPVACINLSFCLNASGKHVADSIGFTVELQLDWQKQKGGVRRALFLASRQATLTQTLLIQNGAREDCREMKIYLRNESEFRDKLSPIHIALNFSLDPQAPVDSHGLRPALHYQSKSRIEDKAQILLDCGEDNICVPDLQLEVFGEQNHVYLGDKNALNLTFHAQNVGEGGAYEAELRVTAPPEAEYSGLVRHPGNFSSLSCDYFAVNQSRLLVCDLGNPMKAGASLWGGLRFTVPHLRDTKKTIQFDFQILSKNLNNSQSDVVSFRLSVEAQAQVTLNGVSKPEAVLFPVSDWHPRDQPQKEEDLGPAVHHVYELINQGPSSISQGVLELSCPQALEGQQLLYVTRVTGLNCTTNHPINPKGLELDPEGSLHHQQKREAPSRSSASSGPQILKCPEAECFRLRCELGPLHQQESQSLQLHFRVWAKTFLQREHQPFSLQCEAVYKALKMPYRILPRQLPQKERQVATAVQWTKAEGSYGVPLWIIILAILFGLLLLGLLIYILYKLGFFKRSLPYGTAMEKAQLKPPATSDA

Key:
mouse α5β1 = mouse α5β1 (Mus musculus, UniProt P09055+P11688); assay: antibody binding to mouse α5β1 integrin
human α5β1 = human α5β1 (Homo sapiens, UniProt P05556+P08648); assay: antibody binding to human α5β1 integrin

binding to mouse α5β1 (mouse α5β1): does not cross-react with mouse α5β1
binding to human α5β1 (human α5β1): binds human α5β1 with high affinity
Substance: volociximab: high-affinity, chimeric IgG4 monoclonal antibody that specifically binds α5β1 integrin; heavy chain SEQ ID NO: 2, light chain SEQ ID NO: 4
